We go through one molecule from US20200375965A1, “Targeting Lipid Metabolism and Free Fatty Acid (FFA) Oxidation to Treat Diseases Mediated by Resident Memory T Cells (TRM)” (The Brigham and Women's Hospital, Inc., priority 2018, published 2020).

In the experiment the test system is Fabp4 and Fabp5 gene expression in CD8+ TRM. The note with it: treatment of mice with GW9662, 1 mg/kg intradermal injection.

With `O=C(Nc1ccccc1)c1cc([N+](=O)[O-])ccc1Cl` [GW9662], the “Fabp4 and Fabp5 gene expression in CD8+ TRM” value was “inhibited”.
